{
  "source": "ChEMBL document CHEMBL1137168",
  "about": "“Tubulin inhibitors. Synthesis and biological activity of HTI-286 analogs with B-segment heterosubstituents” (Bioorg Med Chem Lett, 2004)",
  "test_system": "Tubulin",
  "test": "Compound was evaluated for the inhibition of MAP-rich tubulin polymerisation at 0.3 uM",
  "data": [
    {"smiles": "CN[C@H](C(=O)N[C@H](C(=O)N(C)[C@H](/C=C(\\C)C(=O)O)C(C)C)C(C)(C)SC)C(C)(C)c1ccccc1", "values": [
      {"measurement": "inhibition", "result": 95, "unit": "%"}
    ]}
  ]
}
